Results taken from PubChem BioAssay (NCI).
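A five-concentration, 48-hour dose response in 96-well plates underlies each endpoint, interpolated linearly between surrounding concentrations. The concentration for 50% growth inhibition is given as GI50. Definition used: TGI = concentration required for complete inhibition of growth.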

Legend:
Assay in all cases: NCI tumour cell line growth inhibition, 48 h
786-0 renal = system: 786-0 renal
A498 renal = system: A498 renal
A549 NSCLC = system: A549 NSCLC
ACHN renal = system: ACHN renal
BT-549 breast = system: BT-549 breast
CAKI-1 renal = system: CAKI-1 renal
CCRF-CEM leukemia = system: CCRF-CEM leukemia
COLO 205 colon = system: COLO 205 colon
DU-145 prostate = system: DU-145 prostate
EKVX NSCLC = system: EKVX NSCLC
HCC-2998 colon = system: HCC-2998 colon
HCT-116 colon = system: HCT-116 colon
HCT-15 colon = system: HCT-15 colon
HL-60(TB) leukemia = system: HL-60(TB) leukemia
HOP-62 NSCLC = system: HOP-62 NSCLC
HS 578T breast = system: HS 578T breast
HT29 colon = system: HT29 colon
IGROV1 ovarian = system: IGROV1 ovarian
K-562 leukemia = system: K-562 leukemia
KM12 colon = system: KM12 colon
LOX IMVI melanoma = system: LOX IMVI melanoma
M14 melanoma = system: M14 melanoma
MALME-3M melanoma = system: MALME-3M melanoma
MCF7 breast = system: MCF7 breast
MDA-MB-231 breast = system: MDA-MB-231 breast
MDA-MB-435 = system: MDA-MB-435
MDA-N = system: MDA-N
MOLT-4 leukemia = system: MOLT-4 leukemia
NCI-H226 lung = system: NCI-H226 lung
NCI-H23 lung = system: NCI-H23 lung
NCI-H322M lung = system: NCI-H322M lung
NCI-H460 lung = system: NCI-H460 lung
NCI-H522 lung = system: NCI-H522 lung
NCI/ADR-RES ovarian = system: NCI/ADR-RES ovarian
OVCAR-3 ovarian = system: OVCAR-3 ovarian
OVCAR-4 ovarian = system: OVCAR-4 ovarian
OVCAR-5 ovarian = system: OVCAR-5 ovarian
OVCAR-8 ovarian = system: OVCAR-8 ovarian
PC-3 prostate = system: PC-3 prostate
RPMI-8226 leukemia = system: RPMI-8226 leukemia
RXF 393 renal = system: RXF 393 renal
SF-268 CNS = system: SF-268 CNS
SF-295 CNS = system: SF-295 CNS
SF-539 CNS = system: SF-539 CNS
SK-MEL-2 melanoma = system: SK-MEL-2 melanoma
SK-MEL-28 melanoma = system: SK-MEL-28 melanoma
SK-MEL-5 melanoma = system: SK-MEL-5 melanoma
SK-OV-3 ovarian = system: SK-OV-3 ovarian
SN12C renal = system: SN12C renal
SNB-19 CNS = system: SNB-19 CNS
SNB-75 CNS = system: SNB-75 CNS
SR leukemia = system: SR leukemia
SW-620 colon = system: SW-620 colon
T-47D breast = system: T-47D breast
TK-10 renal = system: TK-10 renal
U251 CNS = system: U251 CNS
UACC-257 melanoma = system: UACC-257 melanoma
UACC-62 melanoma = system: UACC-62 melanoma
UO-31 renal = system: UO-31 renal

Compound: Cn1c(=O)c([N+](=O)[O-])c(N=[N+]=[N-])c2ccccc21
- GI50 (786-0 renal): 1.65 µM
- TGI (786-0 renal): 3.06 µM
- GI50 (A498 renal): 20.6 µM
- TGI (A498 renal): 38.7 µM
- GI50 (A549 NSCLC): 7.78 µM
- TGI (A549 NSCLC): 24.5 µM
- GI50 (ACHN renal): 1.87 µM
- TGI (ACHN renal): 3.29 µM
- GI50 (BT-549 breast): 1.94 µM
- TGI (BT-549 breast): 3.8 µM
- GI50 (CAKI-1 renal): 0.933 µM
- TGI (CAKI-1 renal): 2.26 µM
- GI50 (CCRF-CEM leukemia): 0.447 µM
- TGI (CCRF-CEM leukemia): 1.89 µM
- GI50 (COLO 205 colon): 1.67 µM
- TGI (COLO 205 colon): 3.34 µM
- GI50 (DU-145 prostate): 13.3 µM
- TGI (DU-145 prostate): 26.3 µM
- GI50 (EKVX NSCLC): 2.33 µM
- TGI (EKVX NSCLC): 5.09 µM
- GI50 (HCC-2998 colon): 2.31 µM
- TGI (HCC-2998 colon): 6.22 µM
- GI50 (HCT-116 colon): 1.68 µM
- TGI (HCT-116 colon): 3.05 µM
- GI50 (HCT-15 colon): 1.77 µM
- TGI (HCT-15 colon): 3.37 µM
- GI50 (HL-60(TB) leukemia): 0.326 µM
- TGI (HL-60(TB) leukemia): 1.8 µM
- GI50 (HOP-62 NSCLC): 5.51 µM
- TGI (HOP-62 NSCLC): 11.1 µM
- GI50 (HS 578T breast): 2.11 µM
- TGI (HS 578T breast): 5.13 µM
- GI50 (HT29 colon): 1.74 µM
- TGI (HT29 colon): 3.82 µM
- GI50 (IGROV1 ovarian): 1.87 µM
- TGI (IGROV1 ovarian): 3.54 µM
- GI50 (K-562 leukemia): 0.378 µM
- TGI (K-562 leukemia): 2.3 µM
- GI50 (KM12 colon): 5.98 µM
- TGI (KM12 colon): 18.8 µM
- GI50 (LOX IMVI melanoma): 1.78 µM
- TGI (LOX IMVI melanoma): 3.28 µM
- GI50 (M14 melanoma): 1.53 µM
- TGI (M14 melanoma): 3.12 µM
- GI50 (MALME-3M melanoma): 1.43 µM
- TGI (MALME-3M melanoma): 2.81 µM
- GI50 (MCF7 breast): 1.88 µM
- TGI (MCF7 breast): 4.56 µM
- GI50 (MDA-MB-231 breast): 2.13 µM
- TGI (MDA-MB-231 breast): 4.09 µM
- GI50 (MDA-MB-435): 1.94 µM
- TGI (MDA-MB-435): 4.43 µM
- GI50 (MDA-N): 1.9 µM
- TGI (MDA-N): 3.8 µM
- GI50 (MOLT-4 leukemia): 0.695 µM
- TGI (MOLT-4 leukemia): 2.44 µM
- GI50 (NCI-H226 lung): 12.8 µM
- TGI (NCI-H226 lung): 32.6 µM
- GI50 (NCI-H23 lung): 1.91 µM
- TGI (NCI-H23 lung): 4.11 µM
- GI50 (NCI-H322M lung): 17.1 µM
- TGI (NCI-H322M lung): 30.9 µM
- GI50 (NCI-H460 lung): 10.8 µM
- TGI (NCI-H460 lung): 27.3 µM
- GI50 (NCI-H522 lung): 0.496 µM
- TGI (NCI-H522 lung): 0.936 µM
- GI50 (NCI/ADR-RES ovarian): 8.68 µM
- TGI (NCI/ADR-RES ovarian): 35.8 µM
- GI50 (OVCAR-3 ovarian): 1.78 µM
- TGI (OVCAR-3 ovarian): 3.28 µM
- GI50 (OVCAR-4 ovarian): 3.13 µM
- TGI (OVCAR-4 ovarian): 9.29 µM
- GI50 (OVCAR-5 ovarian): 11.6 µM
- TGI (OVCAR-5 ovarian): 24 µM
- GI50 (OVCAR-8 ovarian): 2.38 µM
- TGI (OVCAR-8 ovarian): 5.72 µM
- GI50 (PC-3 prostate): 2.52 µM
- TGI (PC-3 prostate): 7.5 µM
- GI50 (RPMI-8226 leukemia): 2.5 µM
- TGI (RPMI-8226 leukemia): 6.33 µM
- GI50 (RXF 393 renal): 1.75 µM
- TGI (RXF 393 renal): 3.34 µM
- GI50 (SF-268 CNS): 3.8 µM
- TGI (SF-268 CNS): 15.4 µM
- GI50 (SF-295 CNS): 17.6 µM
- TGI (SF-295 CNS): 32.7 µM
- GI50 (SF-539 CNS): 3.24 µM
- TGI (SF-539 CNS): 9.82 µM
- GI50 (SK-MEL-2 melanoma): 5.25 µM
- TGI (SK-MEL-2 melanoma): 17 µM
- GI50 (SK-MEL-28 melanoma): 1.2 µM
- TGI (SK-MEL-28 melanoma): 2.49 µM
- GI50 (SK-MEL-5 melanoma): 2.24 µM
- TGI (SK-MEL-5 melanoma): 5.29 µM
- GI50 (SK-OV-3 ovarian): 19.1 µM
- TGI (SK-OV-3 ovarian): 33.2 µM
- GI50 (SN12C renal): 3.61 µM
- TGI (SN12C renal): 12.7 µM
- GI50 (SNB-19 CNS): 17.2 µM
- TGI (SNB-19 CNS): 31.7 µM
- GI50 (SNB-75 CNS): 20.2 µM
- TGI (SNB-75 CNS): 38.2 µM
- GI50 (SR leukemia): 2.19 µM
- TGI (SR leukemia): 5.15 µM
- GI50 (SW-620 colon): 1.23 µM
- TGI (SW-620 colon): 2.58 µM
- GI50 (T-47D breast): 2.08 µM
- TGI (T-47D breast): 4.77 µM
- GI50 (TK-10 renal): 1.86 µM
- TGI (TK-10 renal): 3.57 µM
- GI50 (U251 CNS): 10.3 µM
- TGI (U251 CNS): 23.1 µM
- GI50 (UACC-257 melanoma): 1.64 µM
- TGI (UACC-257 melanoma): 3.45 µM
- GI50 (UACC-62 melanoma): 1.72 µM
- TGI (UACC-62 melanoma): 3.37 µM
- GI50 (UO-31 renal): 1.82 µM
- TGI (UO-31 renal): 3.23 µM
